PubChem AID 2061109: pyroptosis screen in mouse bone marrow macrophages, one dose (5 µM).
Target pathway: NLRP3 inflammasome, triggered by LPS and nigericin. Dead cells counted by propidium iodide.
Higher is more protection: 100% equals untreated cells, 0% the stimulated control, negative values set to 0. Active call (*): above 70%. Part of the library is listed.

inhibition [%],smiles
0.0,O=S(=O)(O)c1cc(O)c2c(S(=O)(=O)O)cc(S(=O)(=O)O)cc2c1
0.0,Cc1ccc(CNC(=O)N2CCC[C@]3(CCN(Cc4ccc(Cl)c(Cl)c4)C3)C2)cc1
17.0,O=CN1CCN(c2ccc(C=C3C(=O)Nc4ccccc43)cc2)CC1
0.0,CCNC(=O)Nc1ccc(-c2nc(N3CCOC[C@@H]3C)c3c(n2)C(C)(C)S(=O)(=O)C3)cc1
74.6*,Cl.Nc1ccn([C@@H]2O[C@H](CO)[C@@H](O)[C@@H]2O)c(=O)n1
0.0,Cc1nc(-c2ccccn2)nc(NCCNc2cccc(C(F)(F)F)n2)c1Cl
0.0,OCCCCOc1nsnc1-c1ccc(Cl)c(Cl)c1
0.0,Cc1c([C@H](C)[C@@H]2NC[C@@H](C)C[C@H]2O)ccc2c1C[C@H]1[C@H]2CC=C2C[C@@H](O)CC[C@@]21C
49.5,COc1cc(CCN(C)C)c2ccc3ccccc3c2c1OC
68.2,Cn1sc(=O)n(Cc2ccccc2)c1=O
0.0,C=C[C@@]1(C)Cc2occ(C)c2[C@@H]2OC(=O)C(=C)[C@@H]21
0.0,CC(=O)Nc1ccc(/C=N/NC(N)=S)cc1
52.3,CCc1cc2ncc(CN3CCN(c4ccc(C(=O)NC)nc4)CC3)cc2[nH]c1=O
0.0,C[C@@H]1CN(CC(=O)Nc2ccc3c(c2)Cc2cccc(-c4cc(=O)cc(N5CCOCC5)o4)c2S3)C[C@H](C)O1
0.0,COc1cccc(-c2cn(-c3ccc(CCN4CCC(O)CC4)cc3)c3ncnc(N)c23)c1
28.6,Cc1[nH]c2c(N3CCO[C@H](CO)C3)c(C#N)c(C(F)(F)F)nc2c1Cl
0.0,Cc1ccc(-c2ccc3c(c2)C=C(C(=O)Nc2ccc(C[N+](C)(C)C4CCOCC4)cc2)CCC3)cc1.[Cl-]
0.0,CCCCN1CCCC[C@H]1C(=O)Nc1c(C)cccc1C.Cl
1.4,O=C(Nc1ccccc1)Nc1ccc(-c2ccc(C(=O)[C@@H]3CCC[C@H]3C(=O)O)cc2)cc1
0.0,COC(=O)[C@@H](N)CCCN=C(N)N[N+](=O)[O-].Cl
0.0,CC(C)(C)OC(=O)N[C@@H]1CCCN(Cc2ccnc(C(=O)Nc3ccc(-c4cc5c(N6CCOCC6)ncnc5[nH]4)cc3)c2)C1
37.6,C[C@H]1CC[C@]2(NC1)O[C@H]1C[C@H]3[C@@H]4CC[C@H]5C[C@@H](O[C@@H]6O[C@H](CO)[C@H](O[C@@H]7O[C@H](CO)[C@@H](O)[C@H](O[C@@H]8OC[C@@H](O)[C@H](O)[C@H]8O)[C@H]7O[C@@H]7O[C@H](CO)[C@@H](O)[C@H](O)[C@H]7O)[C@H](O)[C@H]6O)CC[C@]5(C)[C@H]4CC[C@]3(C)[C@H]1[C@@H]2C

The last 4 compounds once more:

smiles | inhibition [%]
O=C(Nc1ccccc1)Nc1ccc(-c2ccc(C(=O)[C@@H]3CCC[C@H]3C(=O)O)cc2)cc1 | 1.4
COC(=O)[C@@H](N)CCCN=C(N)N[N+](=O)[O-].Cl | 0.0
CC(C)(C)OC(=O)N[C@@H]1CCCN(Cc2ccnc(C(=O)Nc3ccc(-c4cc5c(N6CCOCC6)ncnc5[nH]4)cc3)c2)C1 | 0.0
C[C@H]1CC[C@]2(NC1)O[C@H]1C[C@H]3[C@@H]4CC[C@H]5C[C@@H](O[C@@H]6O[C@H](CO)[C@H](O[C@@H]7O[C@H](CO)[C@@H](O)[C@H](O[C@@H]8OC[C@@H](O)[C@H](O)[C@H]8O)[C@H]7O[C@@H]7O[C@H](CO)[C@@H](O)[C@H](O)[C@H]7O)[C@H](O)[C@H]6O)CC[C@]5(C)[C@H]4CC[C@]3(C)[C@H]1[C@@H]2C | 37.6